Measurements from US20060063766A1, “Use of aryl- and heteroaryl-substituted tetrahydroisoquinolines to block reuptake of norepinephrine, dopamine, and serotonin” (priority 2004, published 2006).

Sequences of proteins named here, by UniProt entry; tags and fusion partners are left off.
UniProt P23975, whole entry, looked up: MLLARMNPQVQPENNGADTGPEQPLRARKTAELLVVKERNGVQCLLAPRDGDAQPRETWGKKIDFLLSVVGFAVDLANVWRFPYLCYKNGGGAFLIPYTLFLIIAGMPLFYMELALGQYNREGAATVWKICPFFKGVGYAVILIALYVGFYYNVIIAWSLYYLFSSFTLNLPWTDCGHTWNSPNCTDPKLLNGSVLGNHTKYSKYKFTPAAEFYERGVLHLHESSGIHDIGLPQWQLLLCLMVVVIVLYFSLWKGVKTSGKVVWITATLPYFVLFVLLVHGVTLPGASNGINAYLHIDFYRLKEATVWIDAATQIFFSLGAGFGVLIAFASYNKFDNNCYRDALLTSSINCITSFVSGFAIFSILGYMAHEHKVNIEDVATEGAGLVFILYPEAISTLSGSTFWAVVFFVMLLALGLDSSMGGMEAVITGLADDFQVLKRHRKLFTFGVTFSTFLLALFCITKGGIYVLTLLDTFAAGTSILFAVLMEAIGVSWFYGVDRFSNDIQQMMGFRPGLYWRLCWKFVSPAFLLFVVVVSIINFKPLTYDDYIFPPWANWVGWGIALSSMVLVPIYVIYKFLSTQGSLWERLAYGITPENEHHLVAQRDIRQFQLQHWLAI

Biological target: NET (Homo sapiens, UniProt P23975)
Experiment: Primary binding assay, NET binding ([3H] Nisoxetine)
[1] = read-out: Ki, nM NET, Table 2, inhibition of radioligand binding at human transporter

SMILES	Ki (read-out: NET Ki, Table 1, human transporter in HEK293E cells) [nM]	Ki [1] [nM]
Cc1csc(C2CN(C)Cc3ccccc32)c1 (racemic) [4-methyl-thiophen-2-yl, reference compound]	488	
CN1Cc2cc(-c3cccnn3)ccc2C(c2ccc3sccc3c2)C1 (single isomer, unassigned)		1.4
CN1Cc2cc(CN3CCOCC3)ccc2C(c2cc3ccccc3s2)C1 (single isomer, unassigned) (as salt: maleate)		12.6

Structures can show the parent of a compound that is named as a salt. Where two headings read alike, the source gives them in different places.
